How the values were obtained:
A2BAR [1] = target: T1, A2BAR (Homo sapiens, UniProt P29275); assay: Intracellular calcium mobilization in HEK293 cells; conditions: endogenous A2BAR
T1 sequence (P29275 1-332): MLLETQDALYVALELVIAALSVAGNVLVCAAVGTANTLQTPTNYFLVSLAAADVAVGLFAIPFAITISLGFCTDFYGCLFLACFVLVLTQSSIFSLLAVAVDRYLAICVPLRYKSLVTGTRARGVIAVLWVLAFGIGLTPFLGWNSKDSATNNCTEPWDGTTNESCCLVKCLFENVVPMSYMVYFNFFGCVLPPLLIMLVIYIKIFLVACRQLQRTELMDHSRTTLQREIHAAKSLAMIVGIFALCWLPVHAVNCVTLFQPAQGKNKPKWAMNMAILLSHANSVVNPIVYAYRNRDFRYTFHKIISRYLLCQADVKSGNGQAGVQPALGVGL

A2BAR [2] = target: T1, A2BAR; assay: Intracellular calcium mobilization in T24 cells
A2BAR [3] = target: T1, A2BAR; assay: Intracellular calcium mobilization in HEK293 cells overexpressing the A2BAR
A2BAR [4] = target: T1, A2BAR; assay: cAMP accumulation in T24 cells endogenously expressing the A2BAR; conditions: NECA = 100%
mouse A2BAR = assay: β-Arrestin2 translocation in PathHunter CHO cells; conditions: β-Arrestin versus cAMP reference pathway

Compound	Max effect Calcium (% of effect of NECA) (A2BAR [1]) [%]	Max effect Calcium (% of effect of NECA) (A2BAR [2]) [%]	Max effect Calcium (% of effect of NECA) (A2BAR [3]) [%]	Max effect cAMP (% of effect of NECA) (A2BAR [4]) [%]	ΔΔlog (τ/KA) (mouse A2BAR)
C[C@H](Cc1ccccc1)Nc1ncnc2c1ncn2[C@@H]1O[C@H](CO)[C@@H](O)[C@H]1O [R-PIA, R-N^6-(phenylisopropyl)adenosine]	0.6 ±1.4	9.6 ±4.1	18.2 ±4.9	68.6 ±7.1	–
CCNC(=O)[C@H]1O[C@@H](n2cnc3c(N)ncnc32)[C@H](O)[C@@H]1O [NECA, adenosine-5′-N-ethyluronamide]	–	–	–	–	0.00

— paper PMC4128710 (Biochemical pharmacology, 2014)
